Sequences of proteins named here, by UniProt entry; tags and fusion partners are left off. Residues count along the entry.
UniProt P25774, 115-331: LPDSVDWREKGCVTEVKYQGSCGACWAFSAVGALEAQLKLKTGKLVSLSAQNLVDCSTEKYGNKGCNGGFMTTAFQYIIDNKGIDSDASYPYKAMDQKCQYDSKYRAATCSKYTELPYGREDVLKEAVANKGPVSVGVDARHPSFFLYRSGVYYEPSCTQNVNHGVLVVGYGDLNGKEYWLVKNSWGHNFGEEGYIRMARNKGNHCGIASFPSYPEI

According to patent US6583155B2, “Method for treating allergies using substituted pyrazoles” (priority 2000, dated 2003):

Target: Recombinant human cathepsin S (CatS) (Homo sapiens, UniProt P25774)
Test: biochemical

## CS(=O)(=O)N1CCc2c(c(-c3ccc(C(F)(F)F)cc3)nn2CCCN2CCC(n3c(=O)n(CC#N)c4ccccc43)CC2)C1 [Example 9, [3-(1-{3-[5-Methanesulfonyl-3-(4-trifluoromethyl-phenyl)-4,5,6,7-tetrahydro-pyrazolo[4,3-c]pyridin-1-yl]-propyl}-piperidin-4-yl)-2-oxo-2,3-dihydro-benzoimidazol-1-yl]-acetonitrile]
  IC50: 100 nM

## Cn1c(=O)n(C2CCN(CCCn3nc(-c4ccc(C(F)(F)F)cc4)c4c3CCN(S(C)(=O)=O)C4)CC2)c2cc(Cl)ccc21 [Example 10, 5-Chloro-3-(1-{3-[5-methanesulfonyl-3-(4-trifluoromethyl-phenyl)-4,5,6,7-tetrahydro-pyrazolo[4,3-c]pyridin-1-yl]-propyl}-piperidin-4-yl)-1-methyl-1,3-dihydro-benzoimidazol-2-one]
  IC50: 90 nM
